{"source": "ChEMBL document CHEMBL3817817", "about": "“The design strategy of selective PTP1B inhibitors over TCPTP” (Bioorg Med Chem, 2016)", "target": "T1, Tyrosine-protein phosphatase non-receptor type 1 (Homo sapiens, UniProt P18031)", "T1 sequence (P18031 whole entry)": "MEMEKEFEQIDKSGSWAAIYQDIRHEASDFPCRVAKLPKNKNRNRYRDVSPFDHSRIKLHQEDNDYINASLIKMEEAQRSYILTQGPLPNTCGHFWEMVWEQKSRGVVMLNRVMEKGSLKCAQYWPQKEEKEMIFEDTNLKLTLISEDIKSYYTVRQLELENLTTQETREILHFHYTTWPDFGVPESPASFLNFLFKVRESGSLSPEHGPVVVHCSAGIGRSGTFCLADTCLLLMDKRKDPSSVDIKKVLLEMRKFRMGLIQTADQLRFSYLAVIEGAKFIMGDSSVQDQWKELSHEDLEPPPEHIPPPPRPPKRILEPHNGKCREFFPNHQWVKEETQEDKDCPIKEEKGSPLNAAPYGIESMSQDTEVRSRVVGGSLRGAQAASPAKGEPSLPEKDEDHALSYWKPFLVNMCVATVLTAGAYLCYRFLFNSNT", "assay": "Inhibition of human PTP1B (1 to 288 residues) expressed in Escherichia coli BL21 (DE3) cells using p-nitrophenyl phosphate as substrate monitered every 30 secs for 15 mins by micro plate reader method"}
{"compound": "CC(=O)N[C@H](Cc1ccc(N(C(=O)C(=O)O)c2ccccc2C(=O)O)c2ccccc12)C(=O)NCCCCCOc1cc2ccccc2cc1C(=O)O", "values": [{"measurement": "IC50", "result": 22, "unit": "nM"}]}
